The record followed here is BindingDB's records for 7490729.

Amino acid sequences for entries named in this document (tags omitted).
UniProt P25103, whole entry, looked up: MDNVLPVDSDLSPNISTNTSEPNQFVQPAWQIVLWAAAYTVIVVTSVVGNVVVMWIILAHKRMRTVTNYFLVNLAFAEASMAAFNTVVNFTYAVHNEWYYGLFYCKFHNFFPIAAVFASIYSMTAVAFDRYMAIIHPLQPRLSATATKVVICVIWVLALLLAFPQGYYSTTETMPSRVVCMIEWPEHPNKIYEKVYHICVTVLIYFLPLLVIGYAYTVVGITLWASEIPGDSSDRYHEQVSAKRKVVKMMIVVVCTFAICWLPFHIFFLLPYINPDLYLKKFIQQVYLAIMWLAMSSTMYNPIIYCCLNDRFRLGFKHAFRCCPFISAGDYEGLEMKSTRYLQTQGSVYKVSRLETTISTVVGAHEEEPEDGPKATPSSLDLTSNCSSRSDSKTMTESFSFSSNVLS

The target of the assay is Substance-P receptor (Homo sapiens, UniProt P25103). The experiment in a line: Inhibition of binding of [125I]SP to the CHO cell line expressing human Tachykinin receptor 1.

pIC50: −log10 of the molar value.

Turning to `O=C(O[C@H]1C2CCN(CC2)[C@H]1C(c1ccccc1)c1ccccc1)c1ccccc1`, the pIC50 (as a rule, the negative decadic logarithm of the IC50, by convention in mol/L) was less than 6.00.
